{
  "source": "paper PMC5667422",
  "about": "(Theranostics, 2017)",
  "key": {"[1]": {"tested_on": "subcutaneous A549 tumor xenografts"}, "[2]": {"tested_on": "orthotopic A549 NSCLC tumors", "details": "^18F-FDG 60 min p.i."}, "[3]": {"tested_on": "osseous A549 tumor xenografts"}, "[4]": {"details": "A549 osseous tumor model, ^18F-FDG"}},
  "data": [
    {"compound": "OC[C@H]1OC(O)[C@H](F)[C@@H](O)[C@@H]1O", "note": "(some centres unmarked) [^18F-FDG, ^18F-fluorodeoxyglucose]", "values": [
      {"measurement": "T/N values in subcutaneous, orthotopic and osseous tumors", "setting": "[1]; ^18F-FDG, all three A549 models, printed 'less than or close to 1'", "result": "≤ 1"},
      {"measurement": "background uptake in muscle (PET ROI)", "setting": "[1]; subcutaneous A549 model, ^18F-FDG 60 min p.i.", "result": "3.11 ± 1.05", "unit": "% ID/g"},
      {"measurement": "T/N value (N: normal muscle)", "setting": "[1]; subcutaneous A549 tumor, ^18F-FDG 60 min p.i., n = 5", "result": 1.15},
      {"measurement": "tumor uptake (PET ROI)", "setting": "[2]; n = 5", "result": "1.39 ± 0.075", "unit": "%ID/g"},
      {"measurement": "T/N ratio (N: normal lung tissue)", "setting": "[2]; orthotopic A549 tumor", "result": 0.74},
      {"measurement": "bone uptake", "setting": "[3]; [4]", "result": "2.37 ± 0.53", "unit": "%ID/g"},
      {"measurement": "thigh muscle uptake", "setting": "[3]; [4]", "result": "1.65 ± 0.29", "unit": "%ID/g"},
      {"measurement": "osseous tumor uptake", "setting": "[3]; A549 osseous tumor, ^18F-FDG 60 min p.i.", "result": "3.78 ± 0.73", "unit": "%ID/g"}
    ]}
  ]
}
